Source: US20060153834A1

How the values were obtained:
14C-HIgG (human) = test: secondary screening, batch, HIgG competitive (spiked in MEM)
[1] = target: 14C-Fc fragment of HIgG (human); test: batch adsorption to resin, A280 of flow through, mass balance
[2] = target: Fc fragment of HIgG (unlabeled) (human); test: as above
[3] = target: 14C-Fc fragment of HIgG (human); test: secondary screening, batch, Fc fragment non-competitive (PBS)
[4] = target: 14C-Fc fragment of HIgG (human); test: secondary screening, batch, Fc fragment competitive (spiked in MEM)

**Q.** For “Protein A Sepharose CL-4B (from UniProt P38507 37-477)”, which Bound % (14C-HIgG (human)) is on record?
**A.** Its Bound % is 83.4%.

**Q.** What about the binding capacity, 14C-Fc [1] of the same substance?
**A.** The binding capacity, 14C-Fc was 4.9 mg/mL.

**Q.** And the binding capacity, Unlabeled Fc [2]?
**A.** Its binding capacity, Unlabeled Fc is 9.9 mg/mL.

**Q.** What about the Bound % [3] of the same substance?
**A.** The Bound % was 93.7%.

**Q.** And the Bound % [4]?
**A.** Its Bound % is 78.6%.
